Measurements published in patent US9321756B2, “Azole compounds as PIM inhibitors” (priority 2011, dated 2016).

The chains behind the UniProt entries cited, without tags or fusion partners. Where a name states a change or a piece, a line headed by the entry shows the natural chain unless it says otherwise.
UniProt Q9P1W9: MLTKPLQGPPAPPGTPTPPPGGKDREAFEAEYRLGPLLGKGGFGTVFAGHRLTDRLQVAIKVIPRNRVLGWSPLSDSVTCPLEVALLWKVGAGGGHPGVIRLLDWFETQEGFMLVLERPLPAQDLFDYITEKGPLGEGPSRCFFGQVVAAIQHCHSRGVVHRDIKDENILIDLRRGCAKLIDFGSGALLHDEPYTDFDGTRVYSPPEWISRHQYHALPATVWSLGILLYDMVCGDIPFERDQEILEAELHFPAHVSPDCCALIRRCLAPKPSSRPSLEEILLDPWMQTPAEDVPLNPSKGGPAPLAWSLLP
UniProt P11309, whole entry: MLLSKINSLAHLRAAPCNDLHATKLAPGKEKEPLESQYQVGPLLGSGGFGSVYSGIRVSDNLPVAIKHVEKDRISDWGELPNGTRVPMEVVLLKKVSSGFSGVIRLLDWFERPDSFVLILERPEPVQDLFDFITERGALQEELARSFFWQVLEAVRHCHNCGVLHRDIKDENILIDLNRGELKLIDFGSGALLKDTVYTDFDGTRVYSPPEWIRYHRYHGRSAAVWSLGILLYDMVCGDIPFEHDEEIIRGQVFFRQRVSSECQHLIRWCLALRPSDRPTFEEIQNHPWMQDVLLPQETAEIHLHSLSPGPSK

Key:
Assay type in all cases: biochemical
[1] = biological target: full length recombinant Pim-3 (Homo sapiens (Human), UniProt Q86V86); assay: Pim enzyme assay (HTRF, phosphorylation of biotinylated-BAD (S112) peptide), Pim-3; conditions: Pim-3 enzyme assay; read-out: Pim3 IC50
[2] = biological target: full length recombinant Pim-2 (Homo sapiens (Human), UniProt Q9P1W9); assay: Pim enzyme assay (HTRF, phosphorylation of biotinylated-BAD (S112) peptide), Pim-2; conditions: Pim-2 enzyme assay; read-out: Pim2_IC50
[3] = biological target: full length recombinant Pim-1 (Homo sapiens (Human), UniProt P11309); assay: Pim enzyme assay (HTRF, phosphorylation of biotinylated-BAD (S112) peptide), Pim-1; conditions: Pim-1 enzyme assay; read-out: Pim_1_IC50

IC50 [1] [nM] | IC50 [2] [nM] | IC50 [3] [nM] | SMILES
309 | 289 | – | CC(C)Cn1cc(-c2c[nH]c3ccc(-c4nnc(N)o4)nc23)cn1 [Example 127, 5-(3-(1-(2-methylpropyl)-1H-pyrazol-4-yl)-1H-pyrrolo[3,2-b]pyridin-5-yl)-1,3,4-oxadiazol-2-amine]
– | 40.8 | – | Nc1nnc(-c2ccc3[nH]cc(-c4cccc(OC5CCCC5)n4)c3c2)s1 [Example 163, 5-(3-(6-(cyclopentyloxy)-2-pyridinyl)-1H-indol-5-yl)-1,3,4-thiadiazol-2-amine]
– | – | 1.75 | CC(C)Nc1cncc(-c2c[nH]c3ccc(-c4nnc(N)s4)cc23)n1 [Example 206, 6-(5-(5-amino-1,3,4-thiadiazol-2-yl)-1H-indol-3-yl)-N-(1-methylethyl)-2-pyrazinamine]
– | 242 | – | CNc1nc(-c2ccc3[nH]cc(-c4cncc(OC(C)C)n4)c3c2)no1 [Example 72, 3-(3-(6-isopropoxypyrazin-2-yl)-1H-indol-5-yl)-N-methyl-1,2,4-oxadiazol-5-amine]
– | 254 | – | Oc1nnc(-c2ccc3[nH]cc(-c4cccc(N5CCOCC5)n4)c3c2)s1 [Example 29, 5-(3-(6-morpholinopyridin-2-yl)-1H-indol-5-yl)-1,3,4-thiadiazol-2-ol]
116 | – | – | Nc1nnc(-c2ccc3[nH]cc(-c4cc(C(F)(F)F)ncn4)c3c2)o1 [Example 95, 5-(3-(6-(trifluoromethyl)-4-pyrimidinyl)-1H-indol-5-yl)-1,3,4-oxadiazol-2-amine]
17.8 | – | – | Nc1nnc(-c2ccc3[nH]cc(-c4cccc(OC5CCCCC5)n4)c3c2)s1 [Example 173, 5-(3-(6-(cyclohexyloxy)-2-pyridinyl)-1H-indol-5-yl)-1,3,4-thiadiazol-2-amine]
– | 16.8 | – | Nc1nnc(-c2ccc3[nH]cc(-c4cccc(OC5CCC5)n4)c3c2)s1 [Example 161, 5-(3-(6-(cyclobutyloxy)-2-pyridinyl)-1H-indol-5-yl)-1,3,4-thiadiazol-2-amine]
– | 2.26 | – | Nc1nnc(-c2ccc3[nH]cc(-c4cncc(N5CCC(F)(F)CC5)n4)c3c2)o1 [Example 2, 5-(3-(6-(4,4-difluoropiperidin-1-yl)pyrazin-2-yl)-1H-indol-5-yl)-1,3,4-oxadiazol-2-amine]
7.94 | 35.8 | – | c1cc2[nH]cc(-c3cncc(C4CC4)n3)c2cc1-c1nnc(N2CCOCC2)o1 [Example 245, 3-(6-cyclopropyl-2-pyrazinyl)-5-(5-(4-morpholinyl)-1,3,4-oxadiazol-2-yl)-1H-indole]
– | 7 | – | Nc1nnc(-c2ccc3[nH]cc(-c4nccc(-c5ccccc5F)n4)c3c2)o1 [Example 123, 5-(3-(4-(2-fluorophenyl)-2-pyrimidinyl)-1H-indol-5-yl)-1,3,4-oxadiazol-2-amine]
– | 2.96 | – | CC(C)Nc1nnc(-c2ccc3[nH]cc(-c4nc(C(N)=O)cc(C5CC5)n4)c3c2)o1 [Example 48, 6-cyclopropyl-2-(5-(5-(isopropylamino)-1,3,4-oxadiazol-2-yl)-1H-indol-3-yl)pyrimidine-4-carboxamide]
13.9 | – | – | Nc1nnc(-c2ccc3[nH]cc(-c4cccc(N5CCCCC5)n4)c3c2)s1 [Example 172, 5-(3-(6-(1-piperidinyl)-2-pyridinyl)-1H-indol-5-yl)-1,3,4-thiadiazol-2-amine]
– | 502 | – | CNc1nnc(-c2ccc3[nH]cc(-c4csc(-n5cnc(C)c5)n4)c3c2)s1 [Example 233, N-methyl-5-(3-(2-(4-methyl-1H-imidazol-1-yl)-1,3-thiazol-4-yl)-1H-indol-5-yl)-1,3,4-thiadiazol-2-amine]
126 | – | – | CCN(C)c1cnc(-c2c[nH]c3ccc(-c4nnc(N)s4)cc23)cn1 [Example 188, 5-(5-(5-amino-1,3,4-thiadiazol-2-yl)-1H-indol-3-yl)-N-ethyl-N-methyl-2-pyrazinamine]
7.02 | – | – | Nc1nnc(-c2ccc3[nH]cc(-c4cncc(-c5ccc(Cl)cc5)n4)c3c2)o1 [Example 114, 5-(3-(6-(4-chlorophenyl)-2-pyrazinyl)-1H-indol-5-yl)-1,3,4-oxadiazol-2-amine]
– | 3.2 | – | c1cc(C2CC2)nc(-c2c[nH]c3ccc(-c4nnc(NC5COC5)o4)cc23)n1 [Example 256, 5-(3-(4-cyclopropyl-2-pyrimidinyl)-1H-indol-5-yl)-N-3-oxetanyl-1,3,4-oxadiazol-2-amine]
1.99 | – | – | Nc1nnc(-c2ccc3[nH]cc(-c4cncc(NC5CCCCC5)n4)c3c2)s1 [Example 208, 6-(5-(5-amino-1,3,4-thiadiazol-2-yl)-1H-indol-3-yl)-N-cyclohexyl-2-pyrazinamine]
– | 822 | 792 | Cc1nc(-c2c[nH]c3ccc(-c4nnc(N)s4)cc23)ccc1F [Example 191, 5-(3-(5-fluoro-6-methyl-2-pyridinyl)-1H-indol-5-yl)-1,3,4-thiadiazol-2-amine]
1.58 | – | – | CC(C)Oc1cccc(-c2c[nH]c3ccc(-c4nnc(N)s4)cc23)n1 [Example 157, 5-(3-(6-(1-methylethoxy)-2-pyridinyl)-1H-indol-5-yl)-1,3,4-thiadiazol-2-amine]

SMILES | IC50 [1] [nM] | IC50 [2] [nM] | IC50 [3] [nM]
CNc1nnc(-c2ccc3[nH]cc(-c4cccc(OC(C)C)n4)c3c2)o1 [Example 41, 5-(3-(6-isopropoxypyridin-2-yl)-1H-indol-5-yl)-N-methyl-1,3,4-oxadiazol-2-amine] | 2.26 | – | –
